Read-outs that look alike come from different tables or passages of the source.

Sequences of proteins named here, by UniProt entry; tags and fusion partners are left off.
UniProt P22460, whole entry: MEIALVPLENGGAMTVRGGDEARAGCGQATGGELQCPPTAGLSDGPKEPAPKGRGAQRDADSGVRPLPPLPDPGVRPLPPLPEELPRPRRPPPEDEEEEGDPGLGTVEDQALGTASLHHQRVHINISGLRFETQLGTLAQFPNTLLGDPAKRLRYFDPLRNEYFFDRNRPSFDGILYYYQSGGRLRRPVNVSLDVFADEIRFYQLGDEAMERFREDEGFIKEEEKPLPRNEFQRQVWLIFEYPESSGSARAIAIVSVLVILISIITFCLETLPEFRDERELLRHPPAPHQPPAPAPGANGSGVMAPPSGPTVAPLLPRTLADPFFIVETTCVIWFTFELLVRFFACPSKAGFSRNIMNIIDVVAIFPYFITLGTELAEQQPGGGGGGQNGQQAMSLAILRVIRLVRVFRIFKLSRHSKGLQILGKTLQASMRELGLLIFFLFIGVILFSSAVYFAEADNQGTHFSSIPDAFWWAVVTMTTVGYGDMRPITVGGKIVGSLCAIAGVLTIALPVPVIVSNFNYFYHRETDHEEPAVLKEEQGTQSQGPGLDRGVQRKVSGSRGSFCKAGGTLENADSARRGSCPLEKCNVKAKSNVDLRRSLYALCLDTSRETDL

For this test, the target named is T1, Kv1.5 channels (Homo sapiens, UniProt P22460).
T1 construct: expressed in transfected cells; host or cells: Xenopus laevis oocytes injected with in vitro synthesized RNA
The experiment in a line: Kv1.5 currents in Xenopus oocytes, two microelectrode voltage clamp. Type of test: cell-based, humans. The procedure:
Kv1.5 channels from humans were expressed in Xenopus oocytes. For this, oocytes were first isolated from Xenopus laevis and defolliculated. RNA encoding Kv1.5 and synthesized in vitro was then injected into these oocytes. After Kv1.5 protein expression for 1-7 days, Kv1.5 currents were measured at the oocytes using the two microelectrode voltage clamp technique. The Kv1.5 channels were in this case as a rule activated using voltage jumps to 0 mV and 40 mV lasting 500 ms. The bath was rinsed using a solution of the following composition: NaCl 96 mM, KCl 2 mM, CaCl2 1.8 mM, MgCl2 1 mM, HEPES 5 mM (titrated to pH 7.4 using NaOH). These experiments were carried out at room temperature. The following were employed for data acquisition and analysis: Geneclamp amplifier (Axon Instruments, Foster City, USA) and MacLab D/A converter and software (ADInstruments, Castle Hill, Australia). The substances according to the invention were tested by adding them to the bath solution in different concentrations. The effects of the substances were calculated as percentage inhibition of the Kv1.5 control current which was obtained when no substance was added to the solution. The data were then extrapolated using the Hill equation in order to determine the inhibitory concentrations IC50 for the respective substances.

Setting [1] is: human Kv1.5 expressed in Xenopus oocytes, room temperature, extrapolated using the Hill equation, read-out: IC50 (inhibition of Kv1.5 control current).

As a reminder, the IC50 is the concentration needed to halve the response being measured. With `CCCCS(=O)(=O)Nc1ccccc1C(=O)N[C@H](CC)c1ccc(OC)nc1` [formula I, 2-(butyl-1-sulfonylamino)-N-[1(R)-(6-methoxypyridin-3-yl)propyl]benzamide], the 50% inhibitory concentration (IC50) under setting [1] is 10000 nM. `CCCCS(=O)(=O)Nc1ccccc1C(=O)N[C@@H](CC)c1ccc(OC)nc1` [S enantiomer, 2-(butyl-1-sulfonylamino)-N-[1(S)-(6-methoxypyridin-3-yl)propyl]benzamide]: the half-inhibitory concentration (IC50) under setting [1] is 2400 nM.

Compound `CCCCS(=O)(=O)Nc1ccccc1C(=O)NC(CC)c1ccc(OC)nc1` (racemic) [2-(butyl-1-sulfonylamino)-N-[1-(6-methoxypyridin-3-yl)propyl]benzamide, reference compound] showed a half-inhibitory concentration (IC50) of 2400 nM.

The values above are taken from patent publication US20040192738A1, “2-(Butyl-1-sulfonylamino)-N-[1(R)-(6-methoxypyridin-3-yl)propyl] benzamide, its use as a medicament, and pharmaceutical preparations comprising it” (Aventis Pharma Deutschland GmbH, priority 2003, published 2004).
